UUG fidelity: modulators of yeast start codon fidelity, primary screen, whole organism, S. cerevisiae, single point, plate reader; S. cerevisiae UUG-firefly luciferase reporter, luminescence/redox ratio; activity score, % at 18.7 µM; actives 0.13% (n = 350,000); AID 602363, 2012;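 active = replicate mean at a twofold rise or more, about +100% in these data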;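 also: firefly luciferase made from a UUG start codon reports start codon fidelity; reporter light over untreated wells divided by growth signal over untreated wells; some hits fall short of that in this replicate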
Rev-erbA mod: modulates human Rev-erb alpha binding to DNA. P20393. 0.79% of 370,000 active. Rev-erbα–FITC-DNA binding, fluorescence polarization, 90 min. activity, % at 10 µM;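 active = activity above about 14%, limit read from the data; passing the limit was not always enough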;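 note: 0% = DMSO wells with 35 nM protein and 100% = DMSO wells with 750 nM protein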
PDI turbidity: inhibitors of human protein disulfide isomerase. 0.052% of 350,000 active. AID 588391. inhibition, % at 10 µM. PDI insulin aggregation turbidity, A650, 90 min;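 active = mean inhibition across replicates of 30% or more, whatever share of single replicates reach that level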
GSIS activator: GLuc luminescence reporter in INS-1E cells, primary screen for activators of glucose-dependent secretion of insulin. 0.61% of 370,000 active. AID 743287. INS-1E GLuc reporter insulin secretion, 2-3 h. activation, % at 16.6 µM;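 active = lowest replicate activation of at least 40%, so every replicate reaches that level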;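 note: 0% = median of neutral control wells and 100% = median of IBMX positive control wells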
SMARCA2 act: increases SMARCA2 function in MMTV reporter cells; 1% of 370,000 active; MG213 cells, MMTV-luciferase reporter, dexamethasone, overnight; activation, % at 9.1 µM; in the data active = activation above about 7.8%;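 note: 0% = vehicle wells and 100% = reference activator wells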
ERp5 block: inhibitors of human ERp5; Q15084; ERp5 insulin aggregation, absorbance 650 nm, 90 min; inhibition, % at 9.99 µM; 0.05% of 350,000 active;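 active = mean replicate inhibition above about 25%, with every replicate also reaching it, limit read from the data, passing the limit was not always enough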
SMARCA2 conf: SMARCA2 activation, confirmation screen. shares compounds with SMARCA2 act. MG213 cells, MMTV-luciferase with dexamethasone, luminescence, overnight; MG213 cells expressing E1A, Rb sequestered; DMSO wells 0%, reference activator 100%. activation, % at 9.1 µM. 30% of 3,500 active. AID 652260;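 active = activation above its plate's cutoff, the mean activation of tested wells plus 3 SD, cut at about 7.9% in these data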
VP16 Luc act: activates GAL4-VP16 luciferase, flagging SMARCA2 activator hits; HEK293 GAL4-VP16 pG5luc reporter, luciferase luminescence; scaled: DMSO wells 0%, SAHA wells 100%; activation, % at 9.1 µM; 41% of 3,500 active; shares compounds with SMARCA2 act; AID 686939;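 active = activation above the solvent-only control well mean plus 3 SD, averaged across control plates, cut at about 5.2% in these data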
Numbers without * were called inactive; x = no result given. Hits are enriched below; roughly 2.1% of the tested compounds scored in any of these assays.

Assay codes: A = UUG fidelity; B = Rev-erbA mod; C = PDI turbidity; D = GSIS activator; E = SMARCA2 act; F = ERp5 block; G = SMARCA2 conf; H = VP16 Luc act
1. COCC(=O)N1[C@@H](CO)[C@@H]2c3ccccc3N(C(=O)C3CC3)C[C@@H]21
  A: -1; B: x; C: x; D: -4; E: x; F: 0; G: x; H: x
2. Brc1ccc(Cn2c(-c3ccc(Br)o3)nc3ccccc32)o1
  A: x; B: 3; C: 7; D: -14; E: 12*; F: x; G: 8.1*; H: 2
3. Cn1c(-c2ccc(Br)o2)nc2ccccc21
  A: -20; B: 1; C: -8; D: x; E: 7; F: x; G: x; H: x
4. Cc1nc2ccc([N+](=O)[O-])cc2nc1C
  A: x; B: -9; C: -2; D: 8; E: -2; F: 3; G: x; H: x
5. CC1=Nc2cc([N+](=O)[O-])ccc2NC(C)(C)C1
  A: x; B: 7; C: 2; D: -5; E: 11*; F: 3; G: 6; H: 2
6. Cc1cccc(OCCCC(=O)Nc2nc3ccccc3[nH]2)c1
  A: x; B: -1; C: -1; D: 31; E: 18*; F: -1; G: 14*; H: 2
7. O=C1C(=Cc2cccs2)Oc2ccccc21
  A: -6; B: 3; C: -2; D: x; E: 8.7*; F: -12; G: 1; H: 1
8. O=C1/C(=C/c2cccs2)COc2ccccc21
  A: x; B: -4; C: 0; D: 12; E: 2; F: -1; G: x; H: x
9. Cc1ccc(C(=O)Nc2nnc(C)s2)cc1
  A: -23; B: -5; C: 3; D: 7; E: 13*; F: -49; G: 6; H: 16*
10. O=C(Nc1nnc(SCC(=O)N2CCCc3ccccc32)s1)c1ccccc1
  A: x; B: 4; C: -5; D: x; E: 10*; F: 1; G: 2; H: 8.0*
11. CCSc1nnc(NC(=O)c2ccccc2)s1
  A: x; B: -4; C: -8; D: 10; E: 11*; F: -3; G: 5; H: 5.5*
12. COc1ccc(C(=O)Nc2nnc(SCC(=O)NC3CC3)s2)cc1
  A: -19; B: 2; C: -4; D: 3; E: 8.2*; F: -2; G: 7; H: 13*
13. CCCC#Cc1ccc2c(c1)O[C@@H](CN(C)C(=O)NC(C)C)[C@H](C)CN([C@H](C)CO)S2(=O)=O
  A: 3; B: x; C: x; D: -19; E: x; F: -4; G: x; H: x
14. O=C(C1CCOCC1)N1C[C@@H]2[C@H](c3ccccc31)[C@H](CO)N2Cc1ccc(Cl)cc1
  A: 3; B: x; C: x; D: 3; E: x; F: 5; G: x; H: x
15. CC(Oc1ccc(Cl)cc1Cl)C(=O)NC1CCSC1=O (stereo not drawn)
  A: -11; B: -3; C: -1; D: x; E: 8.3*; F: x; G: 1; H: 1
16. CN(Cc1ccco1)C(=O)CCc1nc2sc3c(c2c(=O)[nH]1)CCCC3
  A: -5; B: -2; C: 12; D: 6; E: 8.2*; F: 4; G: 2; H: 0
17. Cc1ccc(CN(C)C(=O)CCc2nc3sc4c(c3c(=O)[nH]2)CCCC4)o1
  A: 1; B: -4; C: 1; D: 13; E: 1; F: 7; G: x; H: x
18. Cc1cccc(C)c1NC(=O)C1C(c2ccc3c(c2)OCO3)=Nc2ccccc2N1C(=O)c1ccccn1 (stereo not drawn)
  A: x; B: 5; C: x; D: 9; E: 8.1*; F: -3; G: 4; H: 0
19. Cc1cccc(C)c1NC(=O)C1C(c2ccc3c(c2)OCO3)=Nc2ccccc2N1C(=O)c1cccc(C(F)(F)F)c1 (stereo not drawn)
  A: x; B: -5; C: x; D: 1; E: -7; F: -3; G: x; H: x
20. CCCCNC(=O)C1C(c2ccccc2)=Nc2ccccc2N1C(=O)c1ccc2c(c1)OCO2 (stereo not drawn)
  A: x; B: 1; C: x; D: 20; E: -2; F: 6; G: x; H: x
21. CC(=O)N1c2ccccc2N=C(c2ccc3c(c2)OCO3)C1C(=O)NCc1ccccc1 (stereo not drawn)
  A: x; B: 5; C: x; D: 28; E: 11*; F: -3; G: 6; H: 1
22. CC(C)(C)[C@@H]1C=C(C(=O)N2CCCCCCC2)O[C@H](OCc2ccc(CO)cc2)C1
  A: 3; B: x; C: x; D: x; E: x; F: 0; G: x; H: x
23. C[C@H](O)C#Cc1cnc2c(c1)C(=O)N([C@@H](C)CO)C[C@@H](C)[C@@H](CN(C)Cc1cccc(C(=O)O)c1)O2
  A: -2; B: x; C: x; D: 9; E: x; F: 3; G: x; H: x
24. CCOC(=O)Cn1cnc(-c2ccc([N+](=O)[O-])cc2)c1
  A: -4; B: 4; C: 1; D: -4; E: 8.8*; F: x; G: 8; H: 5.8*
25. COc1ccc(-c2ccc3c(n2)CCCN3Cc2ccccc2C(F)(F)F)cc1
  A: x; B: 0; C: x; D: x; E: 8.2*; F: 3; G: 3; H: 5.8*
26. O=S(=O)(c1ccc(C(F)(F)F)cc1)N1CCCc2nc(-c3ccc(Br)cc3)ccc21
  A: x; B: -1; C: x; D: x; E: 15*; F: 1; G: -3; H: 5

Part of the list above in order of length of the SMILES, smallest number first.
Assay codes: A = UUG fidelity; B = Rev-erbA mod; C = PDI turbidity; D = GSIS activator; E = SMARCA2 act; F = ERp5 block; G = SMARCA2 conf; H = VP16 Luc act
24. CCOC(=O)Cn1cnc(-c2ccc([N+](=O)[O-])cc2)c1
  A: -4; B: 4; C: 1; D: -4; E: 8.8*; F: x; G: 8; H: 5.8*
21. CC(=O)N1c2ccccc2N=C(c2ccc3c(c2)OCO3)C1C(=O)NCc1ccccc1 (stereo not drawn)
  A: x; B: 5; C: x; D: 28; E: 11*; F: -3; G: 6; H: 1
23. C[C@H](O)C#Cc1cnc2c(c1)C(=O)N([C@@H](C)CO)C[C@@H](C)[C@@H](CN(C)Cc1cccc(C(=O)O)c1)O2
  A: -2; B: x; C: x; D: 9; E: x; F: 3; G: x; H: x

Compound activity: PubChem, several laboratories
